Experiments:
human MRGPRX2 = human MRGPRX2 (Homo sapiens, UniProt Q96LB1); test: In vitro target binding assay: BRET between MRGPRX2-Nluc and Venus-β-arrestin1 in transfected HEK-293T cells, antagonist mode against agonist R-ZINC-3573 (EC80); details: antagonism of agonist R-ZINC-3573 at EC80, net BRET
Description: Bioluminescence Resonance Energy Transfer (BRET) is an important biophysical technique for monitoring molecular interactions, and has been widely used to study protein-protein interactions in living cells. This technique requires the relevant proteins to be linked to an energy donor (such as luciferase) and an acceptor (such as a fluorescent protein). When a relevant drug molecule interacts with the protein, the protein structure alters, causing a change in the distance between the energy donor and the energy acceptor. The luminescence energy induced by the chemical reaction is transferred to the corresponding acceptor, resulting in increased acceptor emission, and generating a BRET signal. In this work, a DNA-synthesized target human MRGPRX2 and a donor luciferase Nluc (NanoLuc®Promega) (Supplier: Beijing Tsingke, Lot No.: SZ0171228-1), as well as an acceptor fluorescent protein Venus and the relevant test protein, namely human β-arrestin1 (ARRB1) (Supplier: Guangzhou Dahong Biotechnology, Lot No. HY22694-4396), were utilized, and were inserted into the eukaryotic expression vector plasmid pcDNA3.1(+) (Supplier: Qiyun Bio, Lot No.: QY2310) as fusion genes via a Linker sequence (GGSG). The cell line selected for the experiment was human embryonic kidney cells HEK-293T. The human embryonic kidney cell line HEK-293T was routinely cultured in 10 cm cell culture dishes using complete culture medium consisting of high-glucose DMEM medium supplemented with 10% (V/V) fetal bovine serum. Cells were seeded at 2×10^6 cells/10 cm dish on the first day of culture, and passaged every 72 h with the same number of cells. One day prior to transfection, cells were resuspended, counted, and seeded at a density of 2×10^6 cells/6 cm dish or 4×10^6 cells/10 cm dish. Transfection was carried out 16-24 h after seeding. Plasmids constructed with the fusion protein gene were transfected into the expression cell line, and the transfected cells were cultured under appropriate conditions for a period of time to allow sufficient expression of the fusion proteins. Transfection was performed by encapsulating plasmid DNA with PEI reagent, and the encapsulation process should to be carried out in Opti-MEM medium. The ratio of plasmid, PEI (Supplier: Yeasen Biotechnology, Lot No.: WP5430010), and Opti-MEM (Supplier: Gibco, Lot No.: 2883564) was 1:4:14 (W: W: V). The encapsulated plasmid was added to an appropriate amount of complete culture medium, amd gently mixed, which was then used to replace the existing culture medium of the previously plated cells. Cells were harvested 24 h after transfection. Subsequently, cells were resuspended using HBSS (Source: Biosharp, Lot No.: 24179687) and counted with a cell counter. The cells were diluted to a density of (3~5) ×10^5 cells/mL, and then seeded into a flat-bottom white 96-well microplate at 100 µ L/well, resulting in (3~5) ×10^4 cells per well. In each well, 10 µ L of antagonist compounds diluted with HBSS a different concentrations were added firstly, then the agonist compound at a specific concentration (EC80) was added. After reacting for 2 min, the substrate Furimazine (Supplier: TargetMol, Lot No.: 362434) at a final concentration of 10 µM was added. After reacting for another 2 min, the 96-well plate was placed in a PHERAstar FSX microplate reader (Supplier: BMG Labtech) to simultaneously measure the readings at wavelengths of 440 nm and 530 nm. Based on the fluorescence readings at 440 nm and 530 nm, the Ratio and net BRET were calculated. Ratio = Em530 nm / Em440 nm, and net BRET = Ratio co-transfection - Ratio single-transfection. The calculated net BRET values were inputted into GraphPad Prism 9, and curve fitting via nonlinear regression (four-parameter equation) and IC50 calculation were performed.

Protein sequences, listed by entry. Tags and fused reporters are not part of them.
UniProt Q96LB1, whole entry: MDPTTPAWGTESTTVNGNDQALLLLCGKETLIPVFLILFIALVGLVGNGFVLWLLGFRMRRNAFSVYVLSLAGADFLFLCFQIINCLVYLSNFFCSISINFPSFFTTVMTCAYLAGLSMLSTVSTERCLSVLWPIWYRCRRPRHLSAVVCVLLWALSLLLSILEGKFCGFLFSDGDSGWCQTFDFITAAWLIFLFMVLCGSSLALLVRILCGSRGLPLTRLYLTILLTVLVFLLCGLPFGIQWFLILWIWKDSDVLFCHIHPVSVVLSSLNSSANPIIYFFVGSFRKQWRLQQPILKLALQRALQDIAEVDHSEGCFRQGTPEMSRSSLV

BALB/c mice [1] = test: Allergic rhinitis model: IgE assay (ELISA) in peripheral blood, nasal lavage fluid and tracheal tissue; details: mean ± spread; for Peripheral Blood IgE Concentration: serum
Procedure: (§1) Experimental animals: BALB/c mice, from Guangdong Vital River Laboratory Animal Technology Co., Ltd.
(§2) Modeling was initiated on the day of grouping, which was designated as M1. Except for the normal group, mice in all modeling groups were intraperitoneally injected with a sensitization solution of (250 µg OVA (Ovalbumin) (Supplier: Shanghai Macklin, Lot No.: C16255388) mixed with 5 mg aluminum hydroxide/mL) per mouse, while the normal control group was given an equal volume of sterile PBS solution. The injection cycle was M1, M7, and M14. Starting from M21, challenge was carried out by nasal instillation once daily for 7 consecutive days. The challenge solution was a 50 mg/mL OVA solution, and a volume of 10 µL was instilled into each nostril per time. The normal control group was not subjected to nasal instillation.
(§3) Administration was initiated on the day of the challenge by nasal instillation, which was designated as D1, and was performed once daily for 7 consecutive days. The normal control group and the model control group were administered with vehicle alone under the same conditions:
Prior to necropsy, blood was collected from the eyeball. The collected mouse blood was then centrifuged at 1800 r/min at 4 °C for 15 min, and the supernatant serum was aliquoted and stored at -80 °C for testing. At the same time, nasal lavage fluid and tracheal tissues were collected. The IgE levels in the above three samples was detected using an ELISA method (Supplier: Shanghai Enzyme-linked Biotechnology Co., Ltd., Lot No.: ml1037602).

BALB/c mice [2] = test: Atopic dermatitis model: MC903 (calcipotriol) on right ear, ear thickness; details: 50 mg/kg BID p.o., mean ± SEM
Procedure: as §1
MC903 (calcipotriol) (Supplier: TargetMol, Lot No.: 235760) was applied to the right ear of mice, once a day, for 14 consecutive days.
The animals were randomly divided into 6 groups before induction on D1. The model control group was administered with vehicle alone under the same conditions. Administration was carried out according to the following groups:
During the experiment period, the thickness of the right ear of the mice was measured. […] The data are presented as mean ± standard error of the mean (SEM).

BALB/c mice [3] = test: Allergic rhinitis model: OVA sensitization and nasal challenge, number of sneezes; details: 5mg/kg p.o. once daily, within 10 min after the nasal challenge
Procedure: as §1, §2, §3
The number of sneezes in each group was recorded within 10 min after the nasal challenge every day during the administration period.

C57BL/6 mice = test: Inflammatory bowel disease model: 3% DSS drinking water, DAI score; details: mean ± SEM
Procedure: Experimental animals: C57BL/6 mice, from Guangdong Vital River Laboratory Animal Technology Co., Ltd.
C57BL/6 mice were used. 3% DSS (Dextran Sulfate Sodium) (Supplier: MPBIO, Lot No.: YD11024) in water was prepared as drinking water for the mice.
During the experiment, the animals were weighed at a fixed time daily, and their status (including feces, mortality) was observed. The efficacy was evaluated by the DAI score. The details of the DAI scoring criteria are as follows: 0 point for normal stool, 1 point for soft but formed stool, 2 points for soft stool, 3 points for soft and wet stool, 4 points for loose stool; 0-1 point for no occult blood, 2 points for occult blood positive, 3 points for visible blood in stool, 4 points for severe fecal blood; 0 point for no weight loss or weight gain, 1 point for weight loss of 1%-5%, 2 points for weight loss of 6%-10%, 3 points for weight loss of 11%-15%, 4 points for weight loss > 15%. The sum of the scores for 3 items is the total DAI score, and the weighing and scoring were carried out every other day. […] The DAI scores are shown in Table 5, and the data are presented as mean + standard error of the mean (SEM): Table 5

`NCCCCCCNS(=O)(=O)c1ccc(-c2cc3c(cc2F)c(=O)c(C(=O)O)cn3C2CC2)cc1` was tested, and the IC50 (human MRGPRX2) was 10 to 80 µM.

For `COc1c(-c2ccc(S(=O)(=O)NC3CCCCC3)c(C#N)c2)c(F)cc2c(=O)c(C(=O)O)cn(C3CC3)c12`, the IC50 (human MRGPRX2) was 1 to 10 µM.

`COc1c(-c2ccc(S(=O)(=O)NCCCl)cc2)c(F)cc2c(=O)c(C(=O)O)cn(C3CC3)c12` was tested, and the IC50 (human MRGPRX2) was 10 to 80 µM.

With `CCCCCCCNS(=O)(=O)c1ccc(-c2c(F)cc3c(=O)c(C(=O)O)cn(C4CC4)c3c2OC)nc1` the “Nasal Lavage Fluid IgE Concentration” value (BALB/c mice [1]) was 10.3 ± 1.5 ng/mL, the “Peripheral Blood IgE Concentration” value (BALB/c mice [1]) was 9.6 ± 2.2 ng/mL and the “Tracheal Tissue IgE Concentration” value (BALB/c mice [1]) was 10.0 ± 5.3 ng/mL.

For `CCCNC(=O)c1cc(-c2cc3c(cc2F)c(=O)c(C(=O)O)cn3C2CC2)ccn1`, the IC50 (human MRGPRX2) was 1 to 10 µM, the “Right Ear Thickness of Mice” value (BALB/c mice [2]; D2) was 0.19±0.04 mm and the “Right Ear Thickness of Mice” value (BALB/c mice [2]; D4) was 0.28 ± 0.02 mm. For the same compound, the “Right Ear Thickness of Mice” value (BALB/c mice [2]; D6) was 0.42 ± 0.04 mm, the “Right Ear Thickness of Mice” value (BALB/c mice [2]; D8) was 0.50 ± 0.04 mm and the “Right Ear Thickness of Mice” value (BALB/c mice [2]; D10) was 0.52 ± 0.04 mm. For the same compound, the “Right Ear Thickness of Mice” value (BALB/c mice [2]; D12) was 0.60 ± 0.04 mm, the “Right Ear Thickness of Mice” value (BALB/c mice [2]; D14) was 0.58 ± 0.02 mm and the number of sneezes (BALB/c mice [3]; D1) was 1.5 number of sneezes/mouse. The number of sneezes (BALB/c mice [3]; D2) was 3.7 number of sneezes/mouse, the number of sneezes (BALB/c mice [3]; D3) was 15.2 number of sneezes/mouse and the number of sneezes (BALB/c mice [3]; D4) was 12.5 number of sneezes/mouse. The number of sneezes (BALB/c mice [3]; D5) was 10.8 number of sneezes/mouse, the number of sneezes (BALB/c mice [3]; D6) was 13.0 number of sneezes/mouse and the number of sneezes (BALB/c mice [3]; D7) was 15.2 number of sneezes/mouse.

Compound `NC(=O)c1cc(-c2nc3c(cc2F)c(=O)c(C(=O)O)cn3C2CC2)ccn1` has an IC50 (human MRGPRX2) of 1 to 10 µM.

`COc1c(-c2ccc(SCCO)cc2)c(F)cc2c(=O)c(C(=O)O)cn(C3CC3)c12` gave an IC50 (human MRGPRX2) of 10 to 80 µM.

For `COc1c(-c2ccc(S(=O)(=O)N3CCCCC3)cc2)c(F)cc2c(=O)c(C(=O)O)cn(C3CC3)c12`, the IC50 (human MRGPRX2) was 1 to 10 µM, the number of sneezes (BALB/c mice [3]; D1) was 2.5 number of sneezes/mouse and the number of sneezes (BALB/c mice [3]; D2) was 3.3 number of sneezes/mouse. The number of sneezes (BALB/c mice [3]; D3) was 10.2 number of sneezes/mouse, the number of sneezes (BALB/c mice [3]; D4) was 14.5 number of sneezes/mouse and the number of sneezes (BALB/c mice [3]; D5) was 11.3 number of sneezes/mouse. The number of sneezes (BALB/c mice [3]; D6) was 15.8 number of sneezes/mouse, the number of sneezes (BALB/c mice [3]; D7) was 13.2 number of sneezes/mouse and the DAI score (C57BL/6 mice; D1, 20mg/kg QD p.o.) was 0.00±0.00. It also gave a DAI score (C57BL/6 mice; D2, 20mg/kg QD p.o.) of 0.9±1.0, a DAI score (C57BL/6 mice; D3, 20mg/kg QD p.o.) of 2.0±1.2 and a DAI score (C57BL/6 mice; D4, 20mg/kg QD p.o.) of 2.8±1.8. For the same compound, the DAI score (C57BL/6 mice; D5, 20mg/kg QD p.o.) was 3.3±1.2, the DAI score (C57BL/6 mice; D6, 20mg/kg QD p.o.) was 5.2±1.6 and the DAI score (C57BL/6 mice; D7, 20mg/kg QD p.o.) was 6 ··. The “Nasal Lavage Fluid IgE Concentration” value (BALB/c mice [1]) was 9.6 ± 3.8 ng/mL, the “Peripheral Blood IgE Concentration” value (BALB/c mice [1]) was 9.6 ± 2.2 ng/mL and the “Tracheal Tissue IgE Concentration” value (BALB/c mice [1]) was 10.9 ± 4.9 ng/mL.

`COc1cc(-c2c(F)cc3c(=O)c(C(=O)O)cn(C4CC4)c3c2OC)ccc1NC(C)=O` showed an IC50 (human MRGPRX2) of 10 to 80 µM.

Compound `CCCCCCCNS(=O)(=O)c1ccc(-c2cc3c(cc2F)c(=O)c(C(=O)O)cn3C2CC2)cn1` has an IC50 (human MRGPRX2) of 0.1 to 1 µM.

`CCCCCNS(=O)(=O)c1ccc(-c2cc3c(cc2F)c(=O)c(C(=O)OC)cn3C2CC2)cn1` was tested, and the “Nasal Lavage Fluid IgE Concentration” value (BALB/c mice [1]) was 10.6 ± 1.8 ng/mL, the “Peripheral Blood IgE Concentration” value (BALB/c mice [1]) was 9.7 ± 2.9 ng/mL and the “Tracheal Tissue IgE Concentration” value (BALB/c mice [1]) was 9.6 ± 4.2 ng/mL.

`CCCCCCCNS(=O)(=O)c1ccc(-c2c(F)cc3c(=O)c(C(=O)O)cn(C4CC4)c3c2OC)cc1` was tested, and the IC50 (human MRGPRX2) was 0.1 to 1 µM.

`O=C(O)c1cn(C2CC2)c2cc(-c3ccc(S(=O)(=O)NCCCC(F)(F)F)cc3)c(F)cc2c1=O` was tested, and the “Nasal Lavage Fluid IgE Concentration” value (BALB/c mice [1]) was 10.2 ± 2.3 ng/mL, the “Peripheral Blood IgE Concentration” value (BALB/c mice [1]) was 9.8 ± 1.9 ng/mL and the “Tracheal Tissue IgE Concentration” value (BALB/c mice [1]) was 10.3 ± 4.4 ng/mL.

In the case of `NC(=O)c1cc(-c2cc3c(cc2F)c(=O)c(C(=O)O)cn3C2CC2)ccn1`, the IC50 (human MRGPRX2) is reported as 1 to 10 µM.

For `CCCNS(=O)(=O)c1ccc(-c2c(F)cc3c(=O)c(C(=O)O)cn(C4CC4)c3c2Cl)cn1`, the IC50 (human MRGPRX2) was 1 to 10 µM.
